Earlier results as cited in patent US11529363B2, “Methods of treating cancer in pediatric patients” (ARIAD Pharmaceuticals, Inc., priority 2018, dated 2022).

Tested on: ALK+ NSCLC
Settings: cited from earlier work

With `C[C@@H](Oc1cc(-c2cnn(C3CCNCC3)c2)cnc1N)c1c(Cl)ccc(F)c1Cl` [crizotinib] as the compound, how does the “time within which the majority of patients progress” value (ALK+ NSCLC) read?
Its value is at most 1 year.

What about the “patients with ALK-dependent mechanisms of resistance” value (NSCLC patients treated with crizotinib) of the same compound?
Its value is “approximately 30%”.
